Molecules are shown by their SMILES.

In the assay the target is T1, ligand binding domain (LBD) of the human progesterone receptor (Homo sapiens, UniProt P06401).
T1 construct: purchased Invitrogen (Carlsbad, Calif.)
T1 sequence (P06401 679-913 limits assumed): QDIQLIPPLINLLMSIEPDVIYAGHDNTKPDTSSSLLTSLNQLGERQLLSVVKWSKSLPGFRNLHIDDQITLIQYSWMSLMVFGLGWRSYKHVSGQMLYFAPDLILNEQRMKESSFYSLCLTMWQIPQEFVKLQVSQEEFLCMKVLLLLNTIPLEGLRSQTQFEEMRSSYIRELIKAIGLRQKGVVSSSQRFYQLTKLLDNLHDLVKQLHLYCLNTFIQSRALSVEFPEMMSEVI
Briefly: progesterone ligand binding assay by capillary IEF with fluorescence anisotropy. The settings on record: ~100 nM of each labeled protein, 100 nM fluorescein labeled progesterone, 1% ampholytes, focused at 300V; FIG. 9D.

Regarding `CC(=O)[C@H]1CC[C@H]2[C@@H]3CCC4=CC(=O)CC[C@]4(C)[C@H]3CC[C@]12C` [progesterone], the “anisotropy in the region containing the progesterone ligand/receptor complex” value was “high anisotropy”.

Values taken from patent US7931791B2, “Method of detecting analyte-biomolecule interactions” (Southern Illinois University Carbondale, priority 2006, dated 2011).
